{"sequences": {"note": "The chains behind the UniProt entries cited, without tags or fusion partners. Where a name states a change or a piece, a line headed by the entry shows the natural chain unless it says otherwise.", "UniProt Q8TDV0": "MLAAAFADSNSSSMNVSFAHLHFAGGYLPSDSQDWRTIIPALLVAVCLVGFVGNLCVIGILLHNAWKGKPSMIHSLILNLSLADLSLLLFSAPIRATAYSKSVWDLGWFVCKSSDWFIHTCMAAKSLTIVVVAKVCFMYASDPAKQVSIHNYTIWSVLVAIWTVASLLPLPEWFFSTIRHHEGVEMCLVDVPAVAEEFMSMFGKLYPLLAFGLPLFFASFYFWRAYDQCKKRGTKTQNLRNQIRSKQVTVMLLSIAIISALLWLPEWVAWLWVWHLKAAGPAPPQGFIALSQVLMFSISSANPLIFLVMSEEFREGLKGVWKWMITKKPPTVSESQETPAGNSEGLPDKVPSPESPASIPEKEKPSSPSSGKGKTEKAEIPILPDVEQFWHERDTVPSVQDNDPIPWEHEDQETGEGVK"}, "source": "PubChem BioAssay AID1508602", "about": "(The Scripps Research Institute Molecular Screening Center, 2020)", "note": "Only a part is listed here, and it is no random draw. Calls of active or inactive are those of the source. No stated cut-off is given here; in the data, active means activation above about 4.9%; inactive means the rest.", "data": [{"target": "G-protein coupled receptor 151 (Homo sapiens) (UniProt Q8TDV0)", "test": "activators of human GPR151, primary screen, cell-based, PathHunter beta-arrestin, luminescence (AID 1508602);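 further: 0% = median of compound wells and 100% = cells with positive control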", "details": "PathHunter beta-arrestin GPR151 cells, at 11.2 µM, stronger effect = higher value", "values": [{"smiles": "Cc1ccc(S(=O)(=O)NCCCCC(NC(=O)OC(C)(C)C)C(=O)O)cc1", "note": "(stereo unspecified)", "activation": "inactive: -0.241%"}, {"smiles": "CC(Cl)(CSSCC(C)(Cl)C(=O)O)C(=O)O", "note": "(stereo unspecified)", "activation": "inactive: -0.0892%"}, {"smiles": "COC(=O)c1nsnc1NCCCl", "activation": "inactive: 0.597%"}, {"smiles": "CC1(CBr)Cn2c(nc3ccccc3c2=O)S1", "note": "(stereo unspecified)", "activation": "inactive: 0.809%"}, {"smiles": "COc1cc([N+](=O)[O-])cc([N+](=O)[O-])c1N/N=C(/C)c1cccc([N+](=O)[O-])c1", "activation": "inactive: -0.733%"}, {"smiles": "CCOc1ccc(NC(=O)c2ccc([N+](=O)[O-])cc2[N+](=O)[O-])c([N+](=O)[O-])c1", "activation": "inactive: 0.38%"}, {"smiles": "COc1ccc2nc(SCc3ccc(C(=O)O)cc3)[nH]c2c1", "activation": "inactive: 0.395%"}, {"smiles": "CCOP(=O)(NC(=NC(C)c1ccccc1)NC(C)c1ccccc1)OCC", "note": "(stereo unspecified)", "activation": "inactive: -2.42%"}, {"smiles": "COc1cccc(OP(=O)(Nc2ccccn2)Oc2cccc(OC)c2)c1", "activation": "inactive: -0.321%"}, {"smiles": "O=P1(Nc2ccccn2)COc2ccccc2OC1", "activation": "inactive: -1.43%"}, {"smiles": "O=[N+]([O-])c1cc([N+](=O)[O-])c(N2CCCCC2)c([N+](=O)[O-])c1", "activation": "inactive: -0.263%"}, {"smiles": "CCOP(=O)(CN)OCC", "activation": "inactive: -1.6%"}, {"smiles": "CN(CCCl)Cc1cc(Cl)c(NC2=NCCN2)c(Cl)c1", "activation": "inactive: 1.91%"}, {"smiles": "CC(C)(C)C(=O)NC(Sc1ncccn1)C(Cl)(Cl)Cl", "note": "(stereo unspecified)", "activation": "inactive: 0.787%"}, {"smiles": "n1[nH]nc2c1c1n[nH]nc1c1n[nH]nc21", "activation": "inactive: 0.131%"}, {"smiles": "CCOc1ccc(NP2(=O)C=C(Cl)N(C)C(=O)N2C)cc1", "note": "(stereo unspecified)", "activation": "inactive: -0.276%"}, {"smiles": "COc1cc([N+](=O)[O-])cc([N+](=O)[O-])c1OCC(=O)N/N=C/c1ccc([N+](=O)[O-])o1", "activation": "inactive: -1.5%"}, {"smiles": "O=[N+]([O-])c1ccc(N/N=C/c2ccc([N+](=O)[O-])s2)c([N+](=O)[O-])c1", "activation": "inactive: 1.43%"}, {"smiles": "O=[N+]([O-])c1ccc(NCCN(CCO)c2ccc([N+](=O)[O-])cc2[N+](=O)[O-])c(Cl)c1", "activation": "inactive: 0.384%"}, {"smiles": "CCSP(=O)(c1ccccc1)c1ccccc1", "activation": "inactive: 1.84%"}, {"smiles": "CC(=Nc1cc([N+](=O)[O-])ccc1C)NNc1ccc([N+](=O)[O-])cc1[N+](=O)[O-]", "activation": "inactive: -0.494%"}, {"smiles": "COP(=O)(OC)Oc1c(Cl)c(Cl)c(O)c(Cl)c1Cl", "activation": "inactive: -0.35%"}, {"smiles": "Cc1c(N=Cc2ccc([N+](=O)[O-])cc2)cc([N+](=O)[O-])cc1[N+](=O)[O-]", "activation": "inactive: -0.703%"}, {"smiles": "O=C(Nc1cccc(F)c1)N(Cc1cccnc1)C1CCN(CCc2ccccn2)CC1", "activation": "inactive: 0.999%"}, {"smiles": "CC(C)OP(=O)(Nc1ccc(Br)cc1)OC(C)C", "activation": "inactive: 0.593%"}, {"smiles": "CC1(C)COP(=S)(N(C2=NCCC2)c2ccccc2)OC1", "activation": "inactive: 0.86%"}, {"smiles": "CCCCOP(=O)(Nc1cccc(F)c1)OCCCC", "activation": "inactive: 1.4%"}, {"smiles": "Cc1nn(-c2ccccc2)c2c1P(=O)(N1CCOCC1)N(C)C(c1ccccc1)=N2", "note": "(stereo unspecified)", "activation": "inactive: 1.85%"}, {"smiles": "CC(C)NC(=O)N(Cc1cccnc1)C1CCN(CCc2ccccn2)CC1", "activation": "inactive: -2.15%"}, {"smiles": "O=[N+]([O-])c1ccc2c(c1)/C(=N\\O)c1cc([N+](=O)[O-])cc([N+](=O)[O-])c1-2", "activation": "inactive: 0.375%"}, {"smiles": "Cc1n[n+]2c([nH]c1=O)SCC(Br)C2c1ccccc1", "note": "(stereo unspecified)", "activation": "inactive: -0.0802%"}, {"smiles": "N#Cc1cccc(C(=O)N(Cc2ccco2)C2CCN(CCc3ccccn3)CC2)c1", "activation": "inactive: 0.0513%"}, {"smiles": "CN(C)C1(CNC(=O)c2ccc(S(C)(=O)=O)cc2)CCCCC1", "activation": "inactive: -0.472%"}, {"smiles": "COCCN(CCOC)C(=O)COC(=O)C(O)(c1ccccc1)c1ccccc1", "activation": "inactive: -1.17%"}, {"smiles": "O=C(Cc1ccc(F)cc1)N(Cc1ccco1)C1CCN(CCc2ccccn2)CC1", "activation": "inactive: 2.55%"}, {"smiles": "O=C(O)C(Cl)CSc1nc2ccccc2o1", "note": "(stereo unspecified)", "activation": "inactive: -2.05%"}, {"smiles": "COc1ccccc1NC1=NCC(CBr)S1", "note": "(stereo unspecified)", "activation": "inactive: -0.284%"}, {"smiles": "O=C(/C=C/c1ccccc1)OC1CN2CCC1CC2", "note": "(stereo unspecified)", "activation": "inactive: -0.844%"}, {"smiles": "Cc1ccc(NC2=NCC(CBr)S2)cc1", "note": "(stereo unspecified)", "activation": "inactive: 0.394%"}, {"smiles": "O=[N+]([O-])c1ccc(N/N=C/c2ccc(Cl)c([N+](=O)[O-])c2)c([N+](=O)[O-])c1", "activation": "inactive: -0.0358%"}, {"smiles": "NC(=O)c1nsnc1NCCCl", "activation": "inactive: 0.349%"}, {"smiles": "O=C(COC(=O)C(O)(c1ccccc1)c1ccccc1)NC(=O)NCc1ccccc1", "activation": "inactive: -1.31%"}, {"smiles": "NC(=O)Nc1ccc([As](=O)(O)O)cc1", "activation": "inactive: -2%"}, {"smiles": "Cc1ncc(-c2ccccc2)c2ccccc12", "activation": "inactive: -0.608%"}, {"smiles": "Cc1ccnc(NP2(=O)C=C(c3ccccc3)OC(c3ccccc3)=C2)c1", "activation": "inactive: 0.505%"}, {"smiles": "CCOC(=O)NC(Sc1cc(C)ncn1)C(Cl)(Cl)Cl", "note": "(stereo unspecified)", "activation": "inactive: 0.246%"}, {"smiles": "O=[N+]([O-])c1ccc(Nc2ccc([N+](=O)[O-])cc2[N+](=O)[O-])c(O)c1", "activation": "inactive: 4.61%"}, {"smiles": "CN(C(=O)Cc1ccccc1)[C@@H]1CC[C@]2(CCCO2)C[C@H]1N1CCCC1", "activation": "inactive: 1.9%"}, {"smiles": "CC1(C)Nc2ccccc2OP1(=O)c1ccccc1", "note": "(stereo unspecified)", "activation": "inactive: 3.82%"}, {"smiles": "O=C(Oc1ccc([N+](=O)[O-])cc1[N+](=O)[O-])c1cc([N+](=O)[O-])cc([N+](=O)[O-])c1", "activation": "inactive: 1.12%"}, {"smiles": "O=[N+]([O-])c1cccc(P(=O)(Nc2ccccn2)c2cccc([N+](=O)[O-])c2)c1", "activation": "inactive: 0.859%"}, {"smiles": "CC(=O)c1cccc(NC(=O)N(Cc2ccco2)C2CCN(CCc3ccccn3)CC2)c1", "activation": "inactive: 0.365%"}, {"smiles": "O=P(Nc1nccs1)(Oc1ccccc1)Oc1ccccc1", "activation": "inactive: -0.0688%"}, {"smiles": "O=P(Nc1nccs1)(c1ccccc1)c1nc2ccccc2s1", "note": "(stereo unspecified)", "activation": "inactive: 0.68%"}, {"smiles": "NC(=O)COC(=O)C1(O)c2ccccc2-c2ccccc21", "activation": "inactive: 0.363%"}, {"smiles": "CCOP1(=O)Oc2ccccc2OC1c1ccccc1", "note": "(stereo unspecified)", "activation": "inactive: -0.623%"}, {"smiles": "Cn1cnc([N+](=O)[O-])c1SCCCl", "activation": "inactive: -0.551%"}, {"smiles": "CCOc1ccc2nc(NCCCl)[nH]c2c1", "activation": "inactive: -0.263%"}, {"smiles": "O=P(Nc1ccccn1)(c1ccccc1)c1ccccc1", "activation": "inactive: -0.115%"}, {"smiles": "CC(=O)NC(SC1=NCCS1)C(Cl)(Cl)Cl", "note": "(stereo unspecified)", "activation": "inactive: -0.351%"}, {"smiles": "O=C(Nc1cccc([N+](=O)[O-])c1)c1ccc([N+](=O)[O-])cc1[N+](=O)[O-]", "activation": "inactive: 0.581%"}, {"smiles": "Cc1ccc(NCCc2c([N+](=O)[O-])cc([N+](=O)[O-])cc2[N+](=O)[O-])cc1", "activation": "inactive: -2.83%"}, {"smiles": "CCOC(=O)C(C(=O)OCC)C(O)c1c([N+](=O)[O-])cc([N+](=O)[O-])cc1[N+](=O)[O-]", "note": "(stereo unspecified)", "activation": "inactive: -0.103%"}, {"smiles": "O=C(N/N=C\\c1ccc([N+](=O)[O-])cc1)c1cc([N+](=O)[O-])cc([N+](=O)[O-])c1O", "activation": "inactive: 1.04%"}, {"smiles": "CCOP(=O)(Nc1cccc2ccccc12)OCC", "activation": "inactive: 0.46%"}, {"smiles": "O=C(c1cccnc1)N(Cc1cccnc1)C1CCN(CCc2cccs2)CC1", "activation": "inactive: 0.154%"}, {"smiles": "CCC(C(=O)OC1CN2CCC1CC2)c1ccccc1", "note": "(stereo unspecified)", "activation": "inactive: 1.42%"}, {"smiles": "CN(C(=O)Cc1ccc(Cl)c(Cl)c1)[C@@H]1CC[C@]2(CCCO2)C[C@H]1N1CCCC1", "activation": "inactive: -0.298%"}, {"smiles": "CCOP1(=O)N=C(c2ccc(Br)cc2)NC(=O)N1", "note": "(stereo unspecified)", "activation": "inactive: 2.42%"}, {"smiles": "Cc1cc(NC(=O)NP(=O)(O)O)n(-c2ccccc2)n1", "activation": "inactive: 0.867%"}, {"smiles": "COP(=O)(Nc1ccc(C)cc1)OC", "activation": "inactive: -0.631%"}, {"smiles": "Cc1cccc(OCC(=O)OC2CN3CCC2CC3)c1", "note": "(stereo unspecified)", "activation": "inactive: 2.77%"}, {"smiles": "CC(C)OP(=O)(OC(C)C)C(=O)c1ccco1", "activation": "inactive: 1.46%"}, {"smiles": "Cc1cc(Br)c(Nc2c([N+](=O)[O-])cc([N+](=O)[O-])c3nonc23)cc1[N+](=O)[O-]", "activation": "active: 9.82%"}, {"smiles": "BrCC1CN=C(Nc2ccccc2)S1", "note": "(stereo unspecified)", "activation": "inactive: 0.613%"}, {"smiles": "COc1cc(-n2cnnn2)ccc1-n1cnnn1", "activation": "inactive: -0.488%"}]}]}
